Measurements published in article PMC5917010, “Structural basis for GPR40 allosteric agonism and incretin stimulation” (Nature Communications, 2018).

Chains of the proteins cited; added tags and fusions are not shown.
UniProt O14842, whole entry: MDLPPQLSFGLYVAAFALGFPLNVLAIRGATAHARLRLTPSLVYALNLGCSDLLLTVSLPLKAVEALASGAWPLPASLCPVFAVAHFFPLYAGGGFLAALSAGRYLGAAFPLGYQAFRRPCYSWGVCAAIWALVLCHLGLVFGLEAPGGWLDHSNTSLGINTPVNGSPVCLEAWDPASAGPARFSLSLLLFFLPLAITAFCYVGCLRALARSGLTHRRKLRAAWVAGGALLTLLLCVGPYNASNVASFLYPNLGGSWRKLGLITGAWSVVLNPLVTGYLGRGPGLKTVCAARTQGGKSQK

Target: human GPR40 (A2 site) (Homo sapiens, UniProt O14842)
Assay: A2 site radioligand binding with [3H]-AM-1638
Conditions: read-out: Kd of radioligand, saturation analysis (A2 site), tested as the radiolabelled form

COc1ccc(F)c(-c2ccc(COc3cccc([C@@H](CC(=O)O)C4CC4)c3)cc2C2=CCCC2(C)C)c1 [AM-1638]
Kd: 1.2 nM
